Here are results for one molecule from patent publication US8575091B1, “Amylin analogues and pharmaceutical compositions thereof” (Novo Nordisk A/S, priority 2012, dated 2013).

The target in this assay is T1, human amylin receptor (amylin 3(a) receptor: human calcitonin receptor + RAMP-3) (Homo sapiens, UniProt O60896+P30988).
T1 construct: expressed in transfected cells
T1 sequence (P30988 25-474): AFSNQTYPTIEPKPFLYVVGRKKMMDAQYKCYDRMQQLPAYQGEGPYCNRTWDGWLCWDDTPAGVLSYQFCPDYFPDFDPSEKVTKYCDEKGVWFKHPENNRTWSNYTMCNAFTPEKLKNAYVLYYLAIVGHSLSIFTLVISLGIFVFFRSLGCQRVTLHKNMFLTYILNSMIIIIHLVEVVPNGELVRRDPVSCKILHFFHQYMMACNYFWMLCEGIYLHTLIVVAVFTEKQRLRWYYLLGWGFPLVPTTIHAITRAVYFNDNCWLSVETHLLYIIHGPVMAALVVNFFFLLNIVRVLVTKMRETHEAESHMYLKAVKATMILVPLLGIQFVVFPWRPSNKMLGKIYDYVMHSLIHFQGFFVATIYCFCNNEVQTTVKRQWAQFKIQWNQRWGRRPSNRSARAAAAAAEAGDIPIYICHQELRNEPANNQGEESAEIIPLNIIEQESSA
T1 sequence (O60896 24-148 partner): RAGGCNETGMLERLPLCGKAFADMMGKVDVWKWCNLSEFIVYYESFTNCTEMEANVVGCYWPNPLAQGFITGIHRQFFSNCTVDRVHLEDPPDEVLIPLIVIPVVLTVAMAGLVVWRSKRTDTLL
Briefly: Assay (II)a functional assay, human amylin receptor (CRE luciferase, BHK cells). Format: cell-based. The following applies: Table 6; human functional selectivity (hCTR EC50 / hAmylin-R EC50).

As to `CC[C@H](C)[C@H](NC(=O)[C@H](C)NC(=O)CNC(=O)[C@H](Cc1ccccc1)NC(=O)[C@H](CC(N)=O)NC(=O)[C@@H]1CCCN1C(=O)[C@H](CO)NC(=O)[C@H](CO)NC(=O)[C@H](Cc1c[nH]cn1)NC(=O)[C@H](CCCNC(=N)N)NC(=O)[C@H](CC(C)C)NC(=O)[C@H](Cc1ccccc1)NC(=O)[C@H](CC(N)=O)NC(=O)[C@H](C)NC(=O)[C@H](CC(C)C)NC(=O)[C@H](CCCNC(=N)N)NC(=O)[C@H](CCC(N)=O)NC(=O)[C@@H](NC(=O)[C@H](C)NC(=O)[C@@H]1CSSC[C@H](NC(=O)[C@H](CCCCN)NC(=O)CC[C@H](NC(=O)CCCCCCCCCCCCCCCCCCC(=O)O)C(=O)O)C(=O)N[C@@H](CC(N)=O)C(=O)N[C@@H]([C@@H](C)O)C(=O)N[C@@H](C)C(=O)N[C@@H]([C@@H](C)O)C(=O)N1)[C@@H](C)O)C(=O)N1CCC[C@H]1C(=O)N[C@@H](CO)C(=O)N[C@@H](CO)C(=O)N[C@H](C(=O)N[C@@H](CC(N)=O)C(=O)N[C@H](C(=O)NCC(=O)N[C@@H](CO)C(=O)N[C@@H](CC(N)=O)C(=O)N[C@H](C(=O)N[C@@H](Cc1ccc(O)cc1)C(N)=O)[C@@H](C)O)C(C)C)[C@@H](C)O` [Example 21], the “Ratio hCT/hAmylin funct.” value amounted to 4.1.
